Reference: ChEMBL document CHEMBL4257227, “Deubiquitinase inhibitors and methods for use of the same” (2016)
Calls of active or inactive are those of the source. The rule behind the calls is not given here.

Protein sequences, listed by entry. Tags and fused reporters are not part of them.
UniProt Q93009, whole entry, looked up: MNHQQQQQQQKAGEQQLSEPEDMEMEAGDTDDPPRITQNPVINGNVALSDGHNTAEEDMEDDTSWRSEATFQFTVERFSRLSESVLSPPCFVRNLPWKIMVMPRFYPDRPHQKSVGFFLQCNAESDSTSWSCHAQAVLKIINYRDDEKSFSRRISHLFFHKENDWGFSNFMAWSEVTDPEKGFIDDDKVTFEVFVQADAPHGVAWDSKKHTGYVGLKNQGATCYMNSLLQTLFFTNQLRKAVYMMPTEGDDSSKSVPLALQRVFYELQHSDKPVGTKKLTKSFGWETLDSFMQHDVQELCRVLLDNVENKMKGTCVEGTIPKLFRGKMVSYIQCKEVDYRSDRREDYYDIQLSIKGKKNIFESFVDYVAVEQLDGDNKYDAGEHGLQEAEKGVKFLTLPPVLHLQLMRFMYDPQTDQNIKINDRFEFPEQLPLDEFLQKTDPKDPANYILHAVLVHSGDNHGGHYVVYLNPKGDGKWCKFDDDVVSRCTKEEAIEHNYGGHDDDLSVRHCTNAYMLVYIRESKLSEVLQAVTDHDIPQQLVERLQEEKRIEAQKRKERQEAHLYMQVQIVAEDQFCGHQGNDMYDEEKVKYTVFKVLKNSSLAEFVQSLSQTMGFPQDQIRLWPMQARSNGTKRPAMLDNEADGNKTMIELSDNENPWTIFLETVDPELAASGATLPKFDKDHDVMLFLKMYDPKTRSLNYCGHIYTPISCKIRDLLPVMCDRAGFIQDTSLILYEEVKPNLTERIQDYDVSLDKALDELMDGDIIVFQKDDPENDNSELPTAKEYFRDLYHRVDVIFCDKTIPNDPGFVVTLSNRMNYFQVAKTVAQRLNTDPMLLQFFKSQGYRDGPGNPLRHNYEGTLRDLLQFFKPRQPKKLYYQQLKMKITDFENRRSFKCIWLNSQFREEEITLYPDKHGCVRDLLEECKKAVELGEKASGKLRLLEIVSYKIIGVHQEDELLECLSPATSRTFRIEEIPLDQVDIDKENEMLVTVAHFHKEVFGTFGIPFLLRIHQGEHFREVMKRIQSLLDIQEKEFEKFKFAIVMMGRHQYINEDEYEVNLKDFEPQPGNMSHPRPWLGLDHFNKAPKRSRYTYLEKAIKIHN

Experiments:
Assay type in all cases: cell-based
[1] = molecular target: T1, Ubiquitin carboxyl-terminal hydrolase 5 (Homo sapiens) (UniProt P45974); experiment: Inhibition of USP5 in human SK-MEL-28 cells by LC/MS/MS analysis
T1 sequence (whole entry): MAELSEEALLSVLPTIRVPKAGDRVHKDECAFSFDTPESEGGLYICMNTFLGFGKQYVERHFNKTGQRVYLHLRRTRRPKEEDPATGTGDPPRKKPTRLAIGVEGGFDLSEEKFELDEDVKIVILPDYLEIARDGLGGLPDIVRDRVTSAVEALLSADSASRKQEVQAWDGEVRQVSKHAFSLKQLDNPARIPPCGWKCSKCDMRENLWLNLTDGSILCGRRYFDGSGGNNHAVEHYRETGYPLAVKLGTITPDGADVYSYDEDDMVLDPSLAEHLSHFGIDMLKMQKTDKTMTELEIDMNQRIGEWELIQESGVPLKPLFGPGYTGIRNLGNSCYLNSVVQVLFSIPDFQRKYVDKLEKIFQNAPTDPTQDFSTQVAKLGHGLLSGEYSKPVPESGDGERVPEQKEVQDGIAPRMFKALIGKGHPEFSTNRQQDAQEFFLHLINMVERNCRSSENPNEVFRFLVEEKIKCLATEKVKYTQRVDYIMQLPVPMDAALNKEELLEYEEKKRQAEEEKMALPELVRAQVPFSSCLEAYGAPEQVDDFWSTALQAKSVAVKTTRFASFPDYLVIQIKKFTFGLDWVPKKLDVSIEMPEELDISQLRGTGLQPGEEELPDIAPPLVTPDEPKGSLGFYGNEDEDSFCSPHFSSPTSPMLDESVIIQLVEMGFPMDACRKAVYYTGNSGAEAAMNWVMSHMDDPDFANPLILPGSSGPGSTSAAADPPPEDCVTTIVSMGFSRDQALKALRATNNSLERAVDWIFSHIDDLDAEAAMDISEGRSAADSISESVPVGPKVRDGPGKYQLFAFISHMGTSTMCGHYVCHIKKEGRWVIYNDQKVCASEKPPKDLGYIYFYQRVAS

[2] = molecular target: T1, Ubiquitin carboxyl-terminal hydrolase 5 (Homo sapiens); experiment: Inhibition of USP5 in human A375 cells by direct immunoblotting method
[3] = molecular target: T1, Ubiquitin carboxyl-terminal hydrolase 5 (Homo sapiens); experiment: Inhibition of USP5 in human A375 cells by LC/MS/MS analysis
[4] = molecular target: Ubiquitin carboxyl-terminal hydrolase 7 (Homo sapiens) (UniProt Q93009); experiment: Inhibition of USP7 in human SK-MEL-28 cells
[5] = molecular target: T1, Ubiquitin carboxyl-terminal hydrolase 5 (Homo sapiens); experiment: Inhibition of USP5 in human SK-MEL-28 cells by direct immunoblotting method
[6] = molecular target: Ubiquitin carboxyl-terminal hydrolase 7 (Homo sapiens) (UniProt Q93009); experiment: Inhibition of USP7 in human A375 cells

**Q.** How did the inhibition [1] turn out when `CCCS(=O)(=O)Nc1ccc(F)c(C(=O)c2c[nH]c3ncc(-c4ccc(Cl)cc4)cc23)c1F` [VEMURAFENIB] was run?
**A.** Active

**Q.** What about the inhibition [2] of the same compound?
**A.** Active

**Q.** And the inhibition [3]?
**A.** Active

**Q.** What about the inhibition [4] of the same compound?
**A.** inactive

**Q.** And the inhibition [5]?
**A.** Active

**Q.** And the inhibition [6]?
**A.** inactive
